In patent US10730883B2 (AbbVie Inc., priority 2015, dated 2020):

Legend:
healthy subjects = assay: Study 2-Part 1: safety and tolerability, multiple doses, healthy subjects; format: in vivo, human; details: 24 mg BID dose group, 14 days
[1] = subjects with RA on stable methotrexate

## CC[C@@H]1CN(C(=O)NCC(F)(F)F)C[C@@H]1c1cnc2cnc3[nH]ccc3n12 [Compound 1, (3S,4R)-3-ethyl-4-(3H-imidazo[1,2-a]pyrrolo[2,3-e]pyrazin-8-yl)-N-(2,2,2-trifluoroethyl)pyrrolidine-1-carboxamide]
Healthy subjects
  overall incidence of TEAEs: 50%
[1]
  Pharmacokinetic interaction with methotrexate: no pharmacokinetic interaction between methotrexate and Compound 1
